US5644053A, “Penam derivatives” (Hoffmann-La Roche Inc., priority 1994, dated 1997)

By UniProt entry, the sequences of proteins in these tests, tags left out. Residues count along the entry.
UniProt P05193, 21-381: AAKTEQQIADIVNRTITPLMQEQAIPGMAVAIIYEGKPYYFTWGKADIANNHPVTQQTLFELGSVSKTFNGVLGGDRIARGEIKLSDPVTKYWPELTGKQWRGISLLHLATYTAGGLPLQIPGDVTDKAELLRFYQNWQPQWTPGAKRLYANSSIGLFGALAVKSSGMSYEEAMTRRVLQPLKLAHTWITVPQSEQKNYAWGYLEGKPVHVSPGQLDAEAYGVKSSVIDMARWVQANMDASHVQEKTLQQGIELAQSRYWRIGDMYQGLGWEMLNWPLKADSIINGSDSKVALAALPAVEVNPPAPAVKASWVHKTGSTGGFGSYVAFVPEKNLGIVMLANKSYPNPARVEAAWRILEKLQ

Molecular target: β-lactamase (Citrobacter freundii, UniProt P05193)
Conditions: read-out: IC50 C. freundii 1982 (β-lactamase inhibition); isolated enzyme; nitrocefin substrate, pH 7.0, 37° C., 15 min pre-incubation

SMILES | IC50 [nM]
C[C@]1(/C=C/C#N)[C@H](C(=O)O)N2C(=O)C[C@H]2S1(=O)=O [5c (trans nitrile), Sodium (E)-(2S,3S,5R)-3-(2-cyanoethenyl)-3-methyl-4,4,7-trioxo-4-thia-1-aza-bicyclo[3.2.0]heptane-2-carboxylate] | 696
CCOC(=O)/C=C/[C@@]1(C)[C@H](C(=O)O)N2C(=O)C[C@H]2S1(=O)=O [2c (trans ethyl ester), Sodium (E)-(2S,3S,5R)-3-(2-ethoxycarbonyl-vinyl)-3-methyl-4,4,7-trioxo-4-thia-1-aza-bicyclo[3.2.0]heptane-2-carboxylate] | 370
